Nrf2 ARE act – activates Nrf2 signaling. AREc32 ARE-luciferase reporter (MCF7-derived line), luminescence, 24 h. Potency, µM (doses to about 46.1 µM), for inactives: top-dose activation, actives largely listed as activators. 0.31% of 410,000 active. AID 624171; also: potency is read from the fitted curve at half-maximal effect; % of control where 0% means no effect; nearly all actives have a fitted effect of over 65% in size
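AREc32 cells carrying an ARE-driven firefly luciferase reporter were seeded at 1000 cells/well in OPTI-MEM with 5% FBS, then exposed to compound for 24 hr at 37 deg C. Luminescence was read with Steady-Glo after 30 min at RT.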
Nrf2 inh – Nrf2 pathway inhibition | Potency, µM (top dose mostly 46 µM), inactives show at the top dose activity change, negative = inhibition, usual class: inhibitors | 2.1% of 360,000 active | A549 ARE-Fluc reporter, luciferase luminescence, 18-24 h; also: potency is read from the fitted curve at half-maximal effect; % is scaled to controls: 0 for no effect and ±100 for the full control effect; nearly all actives have a fitted effect of over 60% in size
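Cells were seeded and rested 2 h, then exposed to compounds for 18-24 h. CellTiter-Fluor was read first as a viability measure. BugLite was added 15 min before the final luminescent read of ARE-luciferase activity in A549 cells.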
A549 tox-1 – counter-screen for Nrf2 inhibitors: cytotoxicity in A549 cells; A549 ARE-Fluc cells, CellTiter-Fluor viability, 18-24 h; Potency, µM (highest dose often 46 µM), without a hit: at the highest dose activity change, negative = cytotoxicity, actives largely listed as inhibitors; 0.16% of 390,000 active; also: potency is read from the fitted curve at half-maximal effect; % is scaled to controls: 0 for no effect and ±100 for the full control effect
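Cytotoxicity counterscreen: CellTiter-Fluor fluorescence was measured in A549 ARE_Fluc cells after 18-24 h of compound exposure in a concentration series. The subsequent BugLite luminescent read reports ARE-luciferase activity.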
miR-21 reporter – raises the signal of a miR-21 reporter; AID 2288; 340,000 tested, under 10 active; Potency, µM (doses to about 38.3 µM), inactives show at the top dose reporter change, positive = more light; HeLa miR-21 FLuc reporter, luciferase, 48 h; active = well fitted rising curve with a large enough effect; inconclusive = small, poorly fitted or top-dose-only effect; inactive = no such curve, though single readings can be large or run the other way;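 note: % of control where 0% means no effect; miR-21 action dims this reporter so a rising signal means less miR-21 action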
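Luminescence from a firefly luciferase reporter carrying a miR-21 binding site downstream, stably expressed under a CMV promoter in HeLa cells that make miR-21 endogenously, reports miRNA modulation after 48 h compound exposure up to approximately 40uM final.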
PI4K2A block – blocks human PI4K2A kinase activity. 0.13% of 420,000 active. Q9BTU6. activity change, negative = inhibition, % at 76.9 µM. AID 1346378. purified PI4K2A, ADP-Glo luminescence, 1 h; hits give low values; in the data active = activity change below about -50%; inconclusive = mostly about -30% to -49%;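 also: -100% = wells without enzyme as full effect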
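PI4K2A activity was measured by ADP-Glo luminescence: enzyme (4 ug/mL stock) and phosphatidylinositol (1.2 mM stock) in Tris pH 7.5/MgCl2/EGTA/Triton X-100 buffer were reacted with ATP (300 microM stock) for one hour at ambient temperature.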
GALK inh – blocks human galactokinase activity; P51570; Purified GALK, Kinase-Glo residual ATP luminescence; Potency, µM (series often up to 57.5 µM), for inactives: at the top dose activity change, negative = inhibition, actives largely listed as inhibitors; 0.007% of 270,000 active; AID 1868; also: potency is read from the fitted curve at half-maximal effect; % is scaled to controls: 0 for no effect and ±100 for the full control effect
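Human GALK (5 nM) with 35 uM ATP and 100 uM galactose in 20 mM HEPES pH 8.0, 5 mM MgCl2, 60 mM NaCl, 1 mM DTT, 0.01% BSA. After 1 h at room temperature, leftover ATP was read by Kinase-Glo Plus luminescence.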
FLuc enzyme inh – blocks purified firefly luciferase in Nrf2 counterscreen; shares compounds with Nrf2 inh; purified firefly luciferase, luminescence inhibition; Potency, µM (top dose mostly 57.5 µM), inactives show top-dose activity change, negative = inhibition, usual class: inhibitors; 4% of 1,400 active; also: potency is read from the fitted curve at half-maximal effect; % is scaled to controls: 0 for no effect and ±100 for the full control effect; nearly all actives have a fitted effect of over 65% in size
A549 tox-2 – toxic to A549 ARE-Fluc cells in Nrf2 counterscreen. shares compounds with Nrf2 inh. A549 ARE-Fluc cells, cytotoxicity counterscreen. Potency, µM (series often up to 46.1 µM), for the others: at the top dose activity change, negative = cytotoxicity, hits mostly inhibitors. 2% of 1,400 active. AID 720523;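 also: potency is read from the fitted curve at half-maximal effect; cells exposed to compounds for 18 to 24 hours; % is scaled to controls: 0 for no effect and ±100 for the full control effect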
ARE-Fluc inh – reduces Nrf2 ARE reporter signal in A549 cells; Potency, µM (highest dose often 46.1 µM), for inactives: top-dose activity change, negative = inhibition, most hits filed as inhibitors; 74% of 1,400 active; A549 ARE-firefly luciferase reporter, luminescence; shares compounds with Nrf2 inh; AID 720524; also: potency is read from the fitted curve at half-maximal effect; % is scaled to controls: 0 for no effect and ±100 for the full control effect; nearly all actives have a fitted effect of over 65% in size
Numbers without * were called inactive; ? = inconclusive; · = no result shown. The list is not random: actives were taken first. Their share in the collection is about 2.2%. Unless noted, calls follow the shape of the dose curve; as a rule, active = well fitted curve in the direction sought with a large enough effect; inconclusive = small, poorly fitted or top-dose-only effect, or another doubt; inactive = no such curve, though single readings can be large; an effect the other way counts as inactive or inconclusive.

SMILES | Nrf2 ARE act | Nrf2 inh | A549 tox-1 | miR-21 reporter | PI4K2A block | GALK inh | FLuc enzyme inh | A549 tox-2 | ARE-Fluc inh
COc1ccc2[nH]c(S(=O)Cc3ncc(C)c(OC)c3C)nc2n1 (stereo unspecified) | · | · | · | · | -2 | · | · | · | ·
Cn1c(=O)n(-c2ccc(C(C)(C)C#N)cc2)c2c3cc(-c4cnc5ccccc5c4)ccc3ncc21 | · | · | · | · | · | · | 0% | ? | 0.92µM*
O=C1N=C(N2CCC(Cc3ccccc3)CC2)S/C1=C/c1cn[nH]c1-c1ccccc1 | 0% | ? | -15% | 5% | 0 | -1% | -1% | -6% | ?
CCOC(=O)c1sc2ccccc2c1OC(=O)c1ccccc1OC | 3% | 4.6µM* | -29% | ? | -3 | 0% | -14% | -22% | ?
CCOC(=O)c1ccccc1NC(=O)c1sc2ccccc2c1Cl | 4% | ? | -2% | -16% | -2 | · | · | · | ·
COC1=C[C@H](C(=O)NCc2ccccc2)[C@H](C)[C@@H](c2ccccc2)CC1=O | · | · | · | · | -3 | · | · | · | ·
Cc1ccc(NC(=O)C2CCCN(C(=O)c3ccc(Cl)cc3)C2)cc1S(=O)(=O)N1CCOCC1 (stereo unspecified) | 3% | 7.3µM* | ? | 22% | 0 | 0% | 1% | -23% | 13µM*
CCOC(=O)c1cc(-c2ccc(C)cc2)n(CCC(=O)NCc2ccccc2)c1C | 0% | 8.2µM* | -21% | -2% | 1 | · | 1% | -15% | -23%
O=C(CN1CCc2onc(-c3ccc(-n4cc(C5=CCCCC5)nn4)cc3)c2C1=O)N1CCOCC1 | · | · | · | · | 1 | · | · | · | ·
COc1ccc(-c2nnc3n2N=C(c2ccccc2OC)CS3)c(OC)c1 | · | 2% | -9% | · | · | · | · | · | ·
O=C(/C=C/c1ccccc1)NC(NC(=S)Nc1ccc(Cl)cc1)C(Cl)(Cl)Cl (stereo unspecified) | 3% | 6.5µM* | ? | ? | 0 | -2% | ? | ? | 5.2µM*
CC(C)Cn1c(N)c(C(=O)CSc2ccc3c(c2)OCCO3)c(=O)n(C)c1=O | 0% | 0.65µM* | -29% | 21% | -2 | -3% | -1% | -5% | 1.8µM*
CC(C)CN(C(=O)CSc1ccc2c(c1)OCCO2)c1c(N)n(CC(C)C)c(=O)[nH]c1=O | 0% | 3% | 0% | · | 0 | · | · | · | ·
O=C(O)c1cccc(S(=O)(=O)NCC(=O)N2CCN(c3ccccn3)CC2)c1 | · | · | · | · | 1 | · | · | · | ·
CC1CCc2c(sc(NC(=O)c3ccccc3)c2C(=O)Nc2ccccc2)C1 (stereo unspecified) | 7% | 5% | -2% | 9% | -3 | · | · | · | ·
COc1cc(C(=O)Nc2sc3c(c2C(=O)O)CCC(C)C3)cc(OC)c1OC (stereo unspecified) | 0% | 5.2µM* | -11% | 21% | 5 | 1% | -18% | -20% | 7.3µM*
CCc1ccc(NC(=O)c2ccc3c(=O)n4c(nc3c2)CCCCC4)cc1 | 0% | ? | -19% | 19% | -5 | -2% | · | · | ·
CCN(CC)S(=O)(=O)c1ccc(NC(=O)c2ccc3c(=O)n4c(nc3c2)CCCCC4)cc1 | 0% | 9.2µM* | ? | ? | 2 | · | -9% | -15% | 8.2µM*
Cc1cc(=O)[nH]c(N/N=C/c2ccccc2C(F)(F)F)n1 | 3% | 13% | -2% | -2% | 1 | -3% | · | · | ·
Cc1cc(=O)[nH]c(N/N=C/c2cc(C)n(CC(F)(F)F)c2C)n1 | 1% | 4.1µM* | -12% | 13% | -1 | -1% | -7% | -20% | 1.5µM*
O=C(CCCN1C(=O)/C(=C/c2ccccc2Cl)SC1=S)NNC(=O)c1cccnc1 | 11% | ? | -12% | ? | 0 | -3% | · | · | ·
O=C(CCCN1C(=O)/C(=C/c2ccccc2Cl)SC1=S)NNC(=O)c1ccc(Cl)cc1Cl | -2% | 6.5µM* | 0% | ? | -3 | 0% | -12% | -19% | 7.3µM*
Cc1cc(=O)n(CC(=O)N2CCN(c3ccccc3F)CC2)c2c1c(C)nn2C | 1% | 8.2µM* | -6% | 21% | 2 | · | 1% | -7% | ?
O=[N+]([O-])c1ccc2nc(CNc3nc(N4CCOCC4)nc4c3ncn4-c3ccsc3)[nH]c2c1 | · | · | · | · | -2 | · | · | · | ·
CC(=O)N(C(C)=O)c1ncc2c([nH]c3ccccc32)c1C#N | 0% | 8.2µM* | -15% | 21% | 17 | -1% | -18% | -11% | ·

Whole records from above. Order of screens: Nrf2 ARE act	Nrf2 inh	A549 tox-1	miR-21 reporter	PI4K2A block	GALK inh	FLuc enzyme inh	A549 tox-2	ARE-Fluc inh
CCOC(=O)c1ccccc1NC(=O)c1sc2ccccc2c1Cl is listed as 4%	?	-2%	-16%	-2	·	·	·	·
Cc1cc(=O)n(CC(=O)N2CCN(c3ccccc3F)CC2)c2c1c(C)nn2C is listed as 1%	8.2µM*	-6%	21%	2	·	1%	-7%	?

Returning to the listing, repeating the 2 entries before the break.
SMILES | Nrf2 ARE act | Nrf2 inh | A549 tox-1 | miR-21 reporter | PI4K2A block | GALK inh | FLuc enzyme inh | A549 tox-2 | ARE-Fluc inh
O=[N+]([O-])c1ccc2nc(CNc3nc(N4CCOCC4)nc4c3ncn4-c3ccsc3)[nH]c2c1 | · | · | · | · | -2 | · | · | · | ·
CC(=O)N(C(C)=O)c1ncc2c([nH]c3ccccc32)c1C#N | 0% | 8.2µM* | -15% | 21% | 17 | -1% | -18% | -11% | ·
O=C(CSc1nnc(Cn2nnc3ccccc32)o1)Nc1cccc(Cl)c1 | 0% | 15% | -9% | -1% | -2 | -1% | · | · | ·
O=C(CSc1nnc(Cn2nnc3ccccc32)o1)N(Cc1ccc(Cl)cc1)c1ccccc1 | 0% | 5.8µM* | ? | 22% | -2 | 1% | -10% | -27% | 9.2µM*
CCOC(=O)c1c(NC(=O)CC2SC(N)=NC2=O)sc2c1CCCC2 (stereo unspecified) | 3% | 1.6µM* | -24% | -2% | 1 | -5% | -1% | -1% | ?
CCOC(=O)c1c(NC(=O)COC)sc2c1CCCC2 | -1% | 1% | 14% | -7% | -1 | -1% | · | · | ·
N#C/C(=N\Nc1cccc(C(F)(F)F)c1)C(=O)c1ccsc1 | 15% | ? | -18% | 20% | -5 | -5% | 21µM* | ? | ·
Cc1nccc(-c2cccc(N/N=C(\C#N)C(=O)c3ccccc3)c2)n1 | 0% | ? | -17% | -3% | -2 | -3% | · | · | ·
CC(C)(C)C(=O)OC12CCCN(C1)/C(=C/c1ccncc1)C2 (stereo unspecified) | · | · | · | · | 3 | · | · | · | ·
CC(C)(C)c1ccc(S(=O)(=O)Nc2ccc(Cc3ccncc3)cc2)cc1 | 5% | 9.2µM* | ? | -2% | 3 | 0% | -3% | ? | 0.021µM*
CC(=O)Nc1ccc(S(=O)(=O)Nc2ccc(Cc3ccncc3)cc2)cc1 | 0% | ? | 1% | 15% | -1 | 0% | · | · | ·
N#Cc1ccc(N2CCN(c3ccc(F)cc3)CC2)cc1 | 0% | ? | 1% | -21% | 6 | 0% | 3% | 2% | 9%

Source: PubChem
